Biological target: γ-secretase (Homo sapiens, UniProt P49768)
Assay: Isolated membrane γ-secretase assay, time-resolved fluorescence detection of Aβ
Settings: read-out: Activity (IC50), Inhibition of β-Amyloid Peptide; isolated membranes, about 90 minutes at 37 degrees C
Excerpt: The detection of γ-secretase activity requires assays capable of reliable, accurate and expedient detection of γ-secretase cleavage products, particularly Aβ. An isolated membrane fraction that contains functionally active γ-secretase and β-APP substrates can generate γ-secretase cleavage products including Aβ (Roberts et al., WO 01/75435; Fechteler et al., Patent Application No. DE 99-19941039 19990828; Shearman et al., Biochemistry, 39, p. 8698–8704 (2000); Zhang et al., Biochemistry, 40, p. 5049-5055 (2001)). […] 325–327 (1992), or by a preferred method using time-resolved fluorescence of the homogeneous sample containing membranes and Aβ (Roberts et al., WO 01/75435; Shearman et al., Biochemistry, 39, p. 8698–8704 (2000)). The Aβ present in a homogeneous sample containing membranes can be detected by time-resolved fluorescence with two antibodies that recognize different epitopes of Aβ. […] A lack of fluorescence is indicative of the absence of cleavage products, resulting from inhibition of γ-secretase. […]
A typical membrane-based assay requires 45 μg membrane protein per well in a 96- or 384-well format. […] Incubation of the membranes with the test agent will continue for approximately 90 minutes at which time fluorescence labeled antibodies are added to each well for Aβ quantitation. […]

Compound	IC50 [nM]
C#CCC(O)[C@@H](C)N(c1cc(Cl)ccc1Cl)S(=O)(=O)c1ccc(Cl)cc1 (single isomer, unassigned)	< 50
CC(OC(=O)NCCCn1ccnc1)[C@@H](C)N(c1cc(Cl)ccc1CO)S(=O)(=O)c1ccc(Cl)cc1 (single isomer, unassigned)	< 50

— patent US6989399B2, “Antiamyloid phenylsulfonamides: N-alkanol derivatives” (Bristol-Myers Squibb Company, priority 2002, dated 2006)
